The text below walks through data of US11466005B2, “Tricyclic compounds” (JACOBIO PHARMACEUTICALS CO., LTD., priority 2018, dated 2022).

In one assay the target is BRD4(BD1) (Homo sapiens (Human), UniProt O60885). The assay is described as follows: BRD4(BD1) biochemical binding assay (HTRF). As to conditions: read-out: BRD4(BD1) IC50, biotinylated H4 derived acetylated peptide. As for the experimental part:
1. BRD4(BD1) Binding Assays
The BRD4(BD1) biochemical binding assay was performed by Sundia MediTech Co. Ltd. in 384-well white plate (OptiPlate-384, PerkinElmer) using HTRF technology.
Briefly, 20 nL of compounds were transferred to the 384-well plate by Echo® 550 liquid handler (Labcyte, USA), then 5 μL of BRD4(BD1) (Reaction Biology Company, RD-11-157) solution or the assay buffer was added to each well. After incubating at RT for 15 min, 5 μL of the biotinylated H4 derived acetylated peptide (synthesized by GL Biochem (Shanghai) Ltd) and 10 μL of the detection solution (Cisbio Assay) were added to each well. After incubating for 1 h at RT, the HTRF signal was measure at 615 nm and 665 nm using the EnVision Multilabel Plate Reader (PerkinElmer, USA). Results were analyzed with a two-wavelength signal ratio: intensity (665 nm)/intensity (615 nm). The inhibition percentage in the presence of the compound was calculated according to the equation, Percent inhibition=(Max−Signal)/(Max−Min)*100%. Fit the data in GraphPad Prism V5.0 software (San Diego, Calif.) to obtain IC50 values with nonlinear regression analysis using equation, Y=Bottom+(Top−Bottom)/(1+10^((Log IC50−X)×HillSlope), where Y stands for inhibition percentage and X stands for compound concentration.
A general note: In TR-FRET formats the signal depends on donor and acceptor labels being close together.

A further assay deals with MV-4-11 cells. The assay can be described thus: MV-4-11 cell proliferation assay (MTS). As to conditions: read-out: MV-4-11 IC50, 3 days culture. As to the method: 2. Cell Proliferation Assay
MV-4-11 cell proliferation analysis was conducted by the MIS (3-(4,5-dimethylthiazol-2-yl)-5-(3-carboxymethoxyphenyl)-2-(4-sulfophenyl)-2H-tetrazolium, inner salt) assay. Briefly, MV-4-11 cells will be cultured in IMDM (Iscove's Modified Dubecco's Medium) medium supplemented with 10% (v/v) FBS (fetal bovine serum), under the temperature of 37° C., […] and 95% humidity. The cells will be harvested respectively during the logarithmic growth period and counted with hemocytometer. The cell viability is over […] by trypan blue exclusion. Adjust MV-4-11 cells concentrations to 1.2×10^5 cells/mL with complete medium. Add 100 μL cell suspensions to 96-well plates (triplicates for each cell concentration), the final cell densities are 1.2×10^4 cells/well. The next day, dissolve the test compound with DMSO as stock solution. Dispense 5 μL of the stock solution in 1 mL culture media and add 25 μL drug media into 96-well plates. After serially diluting with culture media, the final concentration of the compound will be 0, 0.03, 0.1, 0.3, 1, 3, 10, 30, 100 nM. The plates will be cultured for 3 days, then measured by means of MTS assay. Add PMS (phenazinium methosulfate) solution to MITS solution (1:20) immediately before addition to the culture plate containing cells. […] Record the absorbance at 490 nm using a microplate spectrophotometer (Envision®, PeikinElmer). […]

One may read the IC50 as the point on the concentration scale where inhibition reaches its midpoint. As for `[2H]C([2H])([2H])c1nnn(C)c1-c1cnc2c3c(c(C(C)(C)O)nn3C)n([C@H](c3ncccc3F)C3CCOCC3)c2c1`, the 50% inhibitory concentration (IC50) at BRD4(BD1) stood at 0.54 nM; with MV-4-11 cells it was 0.83 nM.
Regarding `Cc1nnn(C)c1-c1cnc2c3c(c(C(C)(C)O)nn3C)n(C(c3ccncc3F)C3CCOCC3)c2c1` (stereo not shown), the half-inhibitory concentration (IC50) at BRD4(BD1) was determined as 0.88 nM; with MV-4-11 cells, 5 nM.
